Source: BindingDB's records for doi:10.1016/0006-2952(93)90211-e (Mayo Foundation, 1993)

The chains behind the UniProt entries cited, without tags or fusion partners. Where a name states a change or a piece, a line headed by the entry shows the natural chain unless it says otherwise.
UniProt P11229: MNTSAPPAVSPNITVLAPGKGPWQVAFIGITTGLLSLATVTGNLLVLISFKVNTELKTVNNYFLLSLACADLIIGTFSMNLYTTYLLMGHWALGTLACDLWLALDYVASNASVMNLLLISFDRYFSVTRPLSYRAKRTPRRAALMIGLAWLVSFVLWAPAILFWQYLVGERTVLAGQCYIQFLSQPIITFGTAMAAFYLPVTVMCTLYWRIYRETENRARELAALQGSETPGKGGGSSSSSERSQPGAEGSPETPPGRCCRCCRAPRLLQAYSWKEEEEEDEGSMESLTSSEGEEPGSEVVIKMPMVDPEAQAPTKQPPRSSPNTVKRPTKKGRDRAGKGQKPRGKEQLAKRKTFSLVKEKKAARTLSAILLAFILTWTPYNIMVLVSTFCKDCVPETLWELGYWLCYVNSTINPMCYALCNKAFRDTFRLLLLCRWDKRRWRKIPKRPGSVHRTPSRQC
UniProt P20309, whole entry: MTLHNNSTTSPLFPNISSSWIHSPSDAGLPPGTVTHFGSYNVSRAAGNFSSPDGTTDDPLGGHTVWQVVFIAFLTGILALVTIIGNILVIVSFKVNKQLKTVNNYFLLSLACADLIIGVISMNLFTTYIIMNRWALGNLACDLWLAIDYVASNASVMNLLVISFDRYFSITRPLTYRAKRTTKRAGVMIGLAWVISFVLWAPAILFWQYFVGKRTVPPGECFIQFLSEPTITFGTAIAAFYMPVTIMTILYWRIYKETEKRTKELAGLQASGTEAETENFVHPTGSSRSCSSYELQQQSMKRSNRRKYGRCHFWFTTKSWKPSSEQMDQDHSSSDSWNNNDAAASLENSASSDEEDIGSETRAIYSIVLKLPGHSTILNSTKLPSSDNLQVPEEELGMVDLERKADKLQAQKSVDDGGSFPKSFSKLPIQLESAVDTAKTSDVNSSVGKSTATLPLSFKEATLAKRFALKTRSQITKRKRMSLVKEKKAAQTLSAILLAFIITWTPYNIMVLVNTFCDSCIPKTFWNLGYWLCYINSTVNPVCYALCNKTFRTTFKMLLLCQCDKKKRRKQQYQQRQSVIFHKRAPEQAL

Legend:
[1] = biological target: Muscarinic acetylcholine receptor M1 (Homo sapiens, UniProt P11229)
[2] = biological target: Muscarinic acetylcholine receptor M3 (Homo sapiens, UniProt P20309)

Structure (SMILES)	Ki [1] [nM]	Ki [2] [nM]
CN(CCCN1c2ccccc2CCc2ccccc21)CC(=O)c1ccc(Cl)cc1 [CAS_23047-25-8]	67	–
CCc1nn(CCCN2CCN(c3cccc(Cl)c3)CC2)c(=O)n1CC [NSC_40589]	> 10000	> 10000
N[C@H]1CC[C@@H](c2ccc(Cl)c(Cl)c2)c2ccccc21	1650	3500
